Reference: publication PMC8703884, “Synthesis and Biological Evaluation of S-, O- and Se-Containing Dispirooxindoles” (Molecules, 2021)

Tested on: LNCaP human prostate cancer cell line
Assay: MTT cytotoxicity test, LNCaP
Type: cell-based

## CN1CC2(NC(=[Se])N(c3ccc(F)c(Cl)c3)C2=O)C2(C1)C(=O)Nc1ccc(Cl)cc12 (stereo not shown) [Compound 6r, 5″-Chloro-1-(3-chloro-4-fluorophenyl)-1′-methyl-2-selenoxodispiro[imidazolidine-4,3′-pyrrolidine-4′,3″-indoline]-2″,5-dione]
  selectivity on LNCaP cells over PC3 cells: selective
